Structures can show the parent of a compound that is named as a salt.

Consider one compound from paper PMC4933725, “Traxoprodil, a selective antagonist of the NR2B subunit of the NMDA receptor, potentiates the antidepressant-like effects of certain antidepressant drugs in the forced swim test in mice” (Metabolic Brain Disease, 2016).

In this test the test system is mice. The experiment in a line: Spontaneous locomotor activity (Opto-Varimex-4 Auto-Track). Type of test: in vivo, Albino Swiss mice. Conditions: administered either alone or combined together, doses of Table 2 (traxoprodil 10 and 20 mg/kg); two-way ANOVA. As to the method: In order to avoid the risk of obtaining the false positive/negative effects in the FST caused by a possible influence of the tested drugs on the locomotor activity, spontaneous locomotor activity was measured using an animal activity meter Opto-Varimex-4 Auto-Track (Columbus Instruments, USA). The device consists of four transparent cages with a lid (43 × 43 × 32 cm), a set of four infrared emitters (each emitter has 16 laser beams), and four detectors monitoring animal movements. Each mouse was placed individually into the cage for 10 min. Spontaneous locomotor activity was evaluated between the 2nd and the 6th min, which corresponds with the time interval analyzed in the FST.
The results obtained in this test were presented as an arithmetic average distance (given in cm) traveled by a mouse ± SEM for each experimental group.

With `CCOc1ccccc1OC(c1ccccc1)C1CNCCO1` (stereo not shown) [reboxetine, reboxetine mesylate], the “effects on locomotor activity” value is on record as “no statistically significant effects”.
